This passage reports Ki results from ChEMBL document CHEMBL4428116, “Synthesis, molecular modeling and SAR study of novel pyrazolo[5,1-f][1,6]naphthyridines as CB2 receptor antagonists/inverse agonists” (Bioorg Med Chem, 2016).

The chains behind the UniProt entries cited, without tags or fusion partners.
UniProt P20272, whole entry: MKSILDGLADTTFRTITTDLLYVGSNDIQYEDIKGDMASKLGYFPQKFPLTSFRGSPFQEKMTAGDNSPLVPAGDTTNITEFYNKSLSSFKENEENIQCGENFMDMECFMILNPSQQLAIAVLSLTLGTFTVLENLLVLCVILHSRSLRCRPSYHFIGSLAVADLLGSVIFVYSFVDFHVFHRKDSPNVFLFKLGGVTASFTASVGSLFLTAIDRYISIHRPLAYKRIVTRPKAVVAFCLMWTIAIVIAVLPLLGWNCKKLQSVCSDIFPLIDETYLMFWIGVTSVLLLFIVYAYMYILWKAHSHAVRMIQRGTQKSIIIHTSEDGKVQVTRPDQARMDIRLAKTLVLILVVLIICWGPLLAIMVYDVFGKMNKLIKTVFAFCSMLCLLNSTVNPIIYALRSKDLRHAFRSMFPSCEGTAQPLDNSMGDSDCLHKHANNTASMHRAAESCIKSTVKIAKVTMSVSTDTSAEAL

SMILES strings stand for the structures.

What is called Ki is a dissociation constant, usually derived from enzyme kinetics or from competition with a known ligand. High values mean weaker binding, low ones tighter binding.

The test concerns the target Cannabinoid receptor 1 (Rattus norvegicus, UniProt P20272). Nature of the test: Displacement of [3H]CP-55,940 from rat brain CB1 receptor after 1 hr by scintillation counting method. On the technique in general: Loss of bound radioactivity is the signal in a displacement assay; it reports binding, not function.

`Cc1ccc(Cn2nc(C(=O)N[C@@H]3C(C)(C)[C@@H]4CC[C@@]3(C)C4)cc2-c2ccc(Cl)c(C)c2)cc1` [SR-144528] registered a Ki of 400 nM.
